Source: PubChem BioAssay AID485313 (National Center for Advancing Translational Sciences (NCATS), 2010)
“And” between values parts separate entries of the source, which are not always exact repeats. Equal entries are not always repeated. Only a part is listed here, and it is no random draw. The source made the active and inactive calls. The call rests on the fitted dose curve; in most records, active means well fitted activation curve with a large enough effect; inconclusive means small, poorly fitted or top-dose-only effect; inactive means no such curve, though single readings can be large or run the other way.

Experiment: qHTS Assay for NPC1 Promoter Activators;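 further: reporter is driven by a mutant NPC1 promoter; % of control where 0% means no effect; nearly all actives have a fitted effect of over 60% in size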
Details: Huh7 NPC1 promoter luciferase reporter, 24 h; at 9.22 µM (top of the series) unless noted
For `Nc1ccc([As](=O)(O)c2ccc([N+](=O)[O-])cc2)cc1`, the activation was inactive: -0.263%.
In the case of `C(Cc1nn[nH]n1)Cc1nn[nH]n1`, the activation is reported as inactive: -0.0827%.
With `O=C(OC1CN2CCC1CC2)c1cccc(Cl)c1` (stereo not given) the activation was inactive: -0.917%.
For `O=[N+]([O-])c1ccc(O)c(/C=N/Nc2ccc([N+](=O)[O-])cc2[N+](=O)[O-])c1`, the activation was inactive: -36.7%.
For `CC(=O)NC(SC(=S)N(C)C)C(Cl)(Cl)Cl` (stereo not given), the activation was inactive: -13.5%.
For `O=[N+]([O-])c1ncn(CCn2cnc([N+](=O)[O-])n2)n1`, the activation was inactive: -1.12%.
For `O=[As](O)(c1ccccc1)c1ccc(O)cc1`, the activation was inactive: 2.43%.
With `C[C@H]1OP(=O)(Oc2ccccc2)[C@H](O)[C@H](O)[C@H]1N=[N+]=[N-]` (stereo not given in full) the activation was inactive: -1.2%.
For `O=P(Nc1nc2ccccc2s1)(c1ccccc1)c1ccccc1`, the activation was inactive: -0.694%.
In the case of `O=P(Nc1ccccn1)(c1ccc(Br)cc1)c1ccc(Br)cc1`, the activation is reported as inactive: -5.61%.
For `CN(C)C1(CNC(=O)c2ccc(Cl)c(S(N)(=O)=O)c2)CCCCC1`, the activation was inactive: -6.39%.
In the case of `O=[N+]([O-])c1cccc(NC2=NCC(CBr)S2)c1` (stereo not given), the activation is reported as inactive: -5.04%.
For `O=C(O)CNc1ccc([As](=O)(O)O)cc1`, the activation was inactive: 0.324%.
With `CC(C)(C)C(=O)NC(Sc1ccncn1)C(Cl)(Cl)Cl` (stereo not given) the activation was inactive: -5.95%.
In the case of `O=[N+]([O-])c1ncn(CCn2ncnc2[N+](=O)[O-])n1`, the activation is reported as inactive: -2.64%.
For `O=C(Nc1cc([As](=O)(O)O)ccc1O)c1ccccc1`, the activation was inactive: -0.198%.
For `CN(C)C(=O)OCCc1n(C)cc[n+]1C`, the activation was inactive: 0.77%.
With `CC(C)=N/N=C(\N)N[N+](=O)[O-]` the activation was inactive: 0.0497%.
With `CC1CCN(C(=O)Oc2c(Cl)cc(Cl)c3cccnc23)CC1` the activation was inactive: 2.24%.
For `C[N+]1=C2C=CC=CC=C2SC12C([N+](=O)[O-])=CC([N+](=O)[O-])=C[C-]2[N+](=O)[O-]` (stereo not given), the activation was inactive: -6.72%.
In the case of `Nc1ccc([As](=O)(O)c2ccc(N)cc2)cc1`, the activation is reported as inactive: 0.546%.
With `CCN(/C(=N/P(=O)(N1CCOCC1)N1CCOCC1)N1CCOCC1)c1ccc(OC)cc1` the activation was inactive: -5.36%.
With `O=[N+]([O-])c1cccc2n[nH]nc12` the activation was inactive: -0.219%.
With `CC(=O)N1C2C3N(C(C)=O)C1C1N(C(C)=O)C(C(N1C(C)=O)N3C(C)=O)N2C(C)=O` the activation was inactive: 0.856%.
In the case of `CCc1nc2c(n1)c1c(non1O)c1c2no[n+]1[O-]`, the activation is reported as inactive: -8.67%.
In the case of `O=[N+]([O-])c1cc([N+](=O)[O-])c(CCNc2ccccc2)c([N+](=O)[O-])c1`, the activation is reported as inactive: 0.157%.
For `Cc1ccc(NP(=O)(Oc2ccccc2)Oc2ccccc2)nc1`, the activation was inactive: 1.45%.
In the case of `COc1ccc(C2=NCC(CBr)S2)cc1` (stereo not given), the activation is reported as inactive: -20.4%.
For `CC(C)CC(=O)NC(Sc1ccc(Cl)cc1)C(Cl)(Cl)Cl` (stereo not given), the activation was inactive: 4.32%.
For `Nc1cc(N)c2nonc2c1[N+](=O)[O-]`, the activation was inactive: 0.174%.
In the case of `Cc1c2non([O-])c-2c(C)[n+](=O)[n+]1[O-]`, the activation is reported as inactive: 4.8%.
In the case of `O=C(NC(Sc1ccncn1)C(Cl)(Cl)Cl)c1ccccc1` (stereo not given), the activation is reported as inactive: -4.14%.
For `Oc1ccccc1CNc1ccccn1`, the activation was inactive: 18.9%.
For `Cc1ccc(OP(=O)(Nc2nccs2)Oc2ccc(C)cc2)cc1`, the activation was inactive: -2.97%.
With `COc1ccccc1OP(=O)(Nc1ccc(C)cn1)Oc1ccccc1OC` the activation was inactive: -3.02%.
For `Clc1ccc(Cl)c(NC2=NCC(CBr)S2)c1` (stereo not given), the activation was inactive: -2.61%.
For `CN1CCCC(OC(=O)C(c2ccccc2)c2ccccc2)C1` (stereo not given), the activation was inactive: -2.64%.
With `NC(=O)c1cc([N+](=O)[O-])cc([N+](=O)[O-])c1N` the activation was inactive: -6.1%.
With `Cc1ccc(N/C(=N/P(=O)(N2CCOCC2)N2CCOCC2)N2CCOCC2)cc1` the activation was inactive: -3.34%.
For `CN(C(=O)Cc1ccc(Cl)c(Cl)c1)[C@H]1CCCC[C@H]1N1CCCC1`, the activation was inactive: 6.13%.
With `CCN(N=Nc1nonc1N)c1nonc1N` the activation was inactive: -1.14%.
With `Nc1cccc2ccc([As](=O)(O)O)cc12` the activation was inactive: -6.6%.
In the case of `O=[N+]([O-])c1cc([N+](=O)[O-])c(CCN2CCOCC2)c([N+](=O)[O-])c1`, the activation is reported as inactive: -0.097%.
For `Cc1ccc(NP(=O)(Oc2ccccc2F)Oc2ccccc2F)nc1`, the activation was inactive: 1.48%.
In the case of `CN(C(=O)Cc1ccc(Cl)c(Cl)c1)[C@H]1CCCC[C@@H]1N1CCCC1`, the activation is reported as inactive: -9.31% [at 46.1 µM] and inactive: 0.879% [at 46.1 µM].
For `CCOP(=O)(Nc1ccccc1)OCC`, the activation was inactive: 1.01% and inactive: -0.135%.
For `Cc1cc(SC(NC(=O)c2ccc(F)cc2)C(Cl)(Cl)Cl)ncn1` (stereo not given), the activation was inactive: 1.44%.
For `O=C(O)c1ccccc1[As](=O)(O)O`, the activation was inactive: -6.21%.
In the case of `CC(=O)Nc1ccc([As](=O)(O)O)cc1`, the activation is reported as inactive: -1.67%.
In the case of `O=P(Nc1nc2ccc(Cl)cc2s1)(c1ccccc1)c1ccccc1`, the activation is reported as inactive: -2.77%.
